# Earlier results, collected in US20170268027A1, “METHOD FOR SYNTHESIS OF FATTY ACIDS” (priority 2014, published 2017).
# Tested on: Escherichia coli
# Details: addition in the culture medium, genetically modified strains; cited from earlier work
structure (smiles),measurement,value
C/C=C/C/C=C/CCC(=O)[C@H]1O[C@H]1C(N)=O [cerulenin],effect on yield of short-chain fatty acids,increase the yield of synthesis of specific short-chain fatty acids
